For the series the following is noted: in vivo.

As for Carrimycin, the oral absolute bioavailability came out at 91.6%.

Source of the values: US20200405739A1, “MTOR INHIBITOR, PHARMACEUTICAL COMPOSITION AND USE THEREOF” (SHENYANG FUYANG PHARMACEUTICAL TECHNOLOGY CO., LTD., priority 2018, published 2020).
